Results taken from ChEMBL document CHEMBL3244159, “Ultraviolet photoelectron spectroscopy of cyclic amidines. 1. Electronic structure of some alpha-adrenergic benzylimidazolines” (J Med Chem, 1979).

Biological target: Adrenergic receptor alpha
Assay: Displacement of [3H]clonidine from alpha-adrenergic receptor in rat brain
Assay type: tissue-based

Ki: 5.7 nM
SMILES: c1ccc2c(CC3=NCCN3)cccc2c1 [NAPHAZOLINE]
